# According to patent US20130136691A1 (BRACCO IMAGING S P A, published 2013):
# Chains of the proteins cited; added tags and fusions are not shown. Lines headed by an entry give the natural chain unless they say otherwise; changes in a name come on top.
# UniProt P30550: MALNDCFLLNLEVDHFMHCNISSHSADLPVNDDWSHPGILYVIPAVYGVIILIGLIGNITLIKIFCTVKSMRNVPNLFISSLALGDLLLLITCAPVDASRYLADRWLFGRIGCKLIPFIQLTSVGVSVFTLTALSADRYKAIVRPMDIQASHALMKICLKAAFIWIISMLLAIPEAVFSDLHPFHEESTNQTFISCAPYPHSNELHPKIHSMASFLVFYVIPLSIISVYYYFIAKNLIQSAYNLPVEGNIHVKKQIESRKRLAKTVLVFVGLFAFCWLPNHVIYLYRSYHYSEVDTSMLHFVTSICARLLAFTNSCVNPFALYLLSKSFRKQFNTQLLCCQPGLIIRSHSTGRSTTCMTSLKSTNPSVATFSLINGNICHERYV
# T1: neuromedin-B preferring receptor (NMB-R) on C6 rodent glioblastoma cells (rodent, UniProt P24053 1-390, limits assumed)
# T1 construct: whole, on cells; also called C6/NMB-R
# T1 sequence (looked up): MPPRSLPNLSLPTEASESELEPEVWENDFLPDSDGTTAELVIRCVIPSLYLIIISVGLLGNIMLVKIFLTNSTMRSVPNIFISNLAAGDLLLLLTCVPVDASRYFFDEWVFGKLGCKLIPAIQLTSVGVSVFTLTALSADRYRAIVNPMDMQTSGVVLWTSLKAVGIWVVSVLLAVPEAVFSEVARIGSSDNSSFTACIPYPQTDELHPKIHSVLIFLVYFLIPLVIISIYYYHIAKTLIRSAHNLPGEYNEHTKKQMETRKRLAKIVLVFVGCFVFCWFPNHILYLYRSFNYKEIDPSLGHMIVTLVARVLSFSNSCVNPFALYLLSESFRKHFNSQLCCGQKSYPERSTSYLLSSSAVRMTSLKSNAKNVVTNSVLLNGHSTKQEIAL
# B1: L28 (peptide)
# peptide: QWAVGHLM
# modifications: N-term: N,N-dimethylglycine-Ser-Cys(Acm)-Gly-N-4-aminoethyl-N-1-piperazineacetic acid-Ser; C-term amide
# B2: L218 (peptide)
# peptide: LGNQWAVGHLM
# modifications: N-term: pGlu-Gln-Lys(DO3A-monoamide-Gly-4-aminobenzoic acid on the Lys side chain); C-term amide
# B3: L219 (peptide)
# peptide: QWAVGHL
# modifications: N-term: DO3A-monoamide-Gly-4-aminobenzoic acid-(D)-Phe; C-terminal pentylamide (NH-Pentyl)
# notes: also called DO3A-monoamide-Gly-4-aminobenzoic acid-(D)-Phe-QWAVGHL-NH-Pentyl
# Assays:
# [1] = target: T1, neuromedin-B preferring receptor …; assay: 125I-NMB competition, C6 cells
# [2] = target: T2, gastrin releasing peptide receptor (GRP-R) (human, UniProt P30550 1-384); assay: 125I-BBN competition, PC3 cells
# T2 construct: whole, on cells; also called GRP receptor; BB2
binder,measurement,setting,value
B1,IC50,[1],13 nM
B2,IC50,[2],53 nM
B3,IC50,[2],75 nM
